The values below come from patent US20100255521A1, “Fluorescent substrates for Detecting organophosphatase enzyme activity” (published 2010).

Protein sequences, listed by entry. Tags and fused reporters are not part of them. Lines headed by an entry give the natural chain unless they say otherwise; changes in a name come on top.
UniProt P52430: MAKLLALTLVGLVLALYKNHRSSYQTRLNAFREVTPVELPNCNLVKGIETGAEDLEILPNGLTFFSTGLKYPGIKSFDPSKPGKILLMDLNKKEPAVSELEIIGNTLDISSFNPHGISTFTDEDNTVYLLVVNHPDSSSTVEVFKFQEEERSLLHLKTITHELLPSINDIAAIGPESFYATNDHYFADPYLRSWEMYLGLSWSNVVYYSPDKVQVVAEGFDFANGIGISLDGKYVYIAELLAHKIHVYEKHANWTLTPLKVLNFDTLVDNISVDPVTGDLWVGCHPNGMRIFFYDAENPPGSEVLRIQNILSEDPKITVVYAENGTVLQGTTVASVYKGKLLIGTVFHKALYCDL
UniProt P27169: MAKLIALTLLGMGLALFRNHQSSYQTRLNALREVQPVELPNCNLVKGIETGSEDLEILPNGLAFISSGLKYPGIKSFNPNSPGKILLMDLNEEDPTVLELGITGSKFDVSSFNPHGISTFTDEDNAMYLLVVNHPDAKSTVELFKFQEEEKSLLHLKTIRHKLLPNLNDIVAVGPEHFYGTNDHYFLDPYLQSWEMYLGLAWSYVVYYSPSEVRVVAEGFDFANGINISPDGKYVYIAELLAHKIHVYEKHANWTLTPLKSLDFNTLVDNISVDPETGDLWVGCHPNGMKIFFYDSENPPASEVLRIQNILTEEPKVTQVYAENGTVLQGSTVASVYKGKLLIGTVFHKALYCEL
UniProt P27170: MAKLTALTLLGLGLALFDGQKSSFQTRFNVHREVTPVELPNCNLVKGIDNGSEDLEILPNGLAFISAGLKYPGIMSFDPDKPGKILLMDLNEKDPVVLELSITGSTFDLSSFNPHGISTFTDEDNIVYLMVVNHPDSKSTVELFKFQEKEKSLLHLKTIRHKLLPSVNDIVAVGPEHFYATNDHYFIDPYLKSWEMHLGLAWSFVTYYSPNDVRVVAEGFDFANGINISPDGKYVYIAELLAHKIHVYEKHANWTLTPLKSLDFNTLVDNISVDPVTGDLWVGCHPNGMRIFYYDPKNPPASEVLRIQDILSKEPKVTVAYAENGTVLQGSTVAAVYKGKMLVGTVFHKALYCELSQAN

The term Km denotes the substrate concentration at which the rate is half of its maximum.

The target of one test is bacterial OPH (Brevundimonas diminuta, UniProt P0A434). Nature of the test: Detection of OPH with FDPTEE (Example 9, FIG. 7). The following applies: 100 μM FDPTEE, 30 min at 37° C., Ex 488 nm/Em 520 nm.
For test [1], the target named is serum paraoxonase (Mus musculus, UniProt P52430). Nature of the test: FDPTEE hydrolysis by sera of normal and PON1 KO mice (FIG. 8). Conditions: sera diluted 1/10, 100 μM FDPTEE, 30 min at 37° C., Ex 488 nm/Em 520 nm.
The subject of test [2] is serum paraoxonase. The test is described as above. Conditions: sera diluted 1/10, 100 μM FDPTEE, 30 min at 37° C., Ex 488 nm/Em 520 nm.
Test [3] concerns the target recombinant human paraoxonase, expressed in CHO cells (Homo sapiens, UniProt P27169). Conditions: incubation with PON1 transfected CHO cells, fluorescence 355/460.
Test [4] addresses human paraoxonase (PON1) expressed in CHO cells (Homo sapiens, UniProt P27169). Conditions: 100 μM substrate, 48 hours after transfection, 355/460.
Test [5] concerns human PON1 (mutants and natural variants) expressed in CHO cells. The following applies: 100 μM substrate, 355/460.
In test [6] the test system is PON1 variant/mutants (145-6, 142-2, 131-10, 122-7) in CHO cells. Nature of the test: Hydrolysis of DEPFMU by CHO cells transfected with PON1 mutants. The following applies: 40 μg/mL substrate, 10 min at 37 C.
The target of test [7] is rabbit recombinant paraoxonase (Oryctolagus cuniculus, UniProt P27170). Nature of the test: Km of recombinant rabbit paraoxonase for DEPFMU, Lineweaver-Burk plot.
In another test the target is OPH (Brevundimonas diminuta, UniProt P0A434). Nature of the test: OPH detection sensitivity and kinetics of OPH mediated hydrolysis (Example 7).

Turning to “fluorescein diphosphate tetraethyl ester”, on bacterial OPH, the “level of reliable detection of OPH per well” value came to 100 fmol. The “fluorescence in sera from normal C57Black mice” value at serum paraoxonase [1] is reported as “significant fluorescence was detected”. Moreover, in the test with serum paraoxonase [2], the “fluorescence in sera from PON1 KO mice” value is “No fluorescence was detected”.

With “7-diethyl-phospho-6,8-difluoro-4-methylumbelliferyl”, in test [3], the hydrolysis by paraoxonase entry is on record as “specifically hydrolyzed”. Also, in [4], the “hydrolysis by CHO cells transfected with the vector expressing paraoxonase” value was “significant hydrolysis” and the “hydrolysis by mock-transfected CHO cells” value is “do not hydrolyze”. Moreover, in [5], the “hydrolysis by PON1 transfected CHO cells” value is given as “significant hydrolysis” and the “hydrolysis by mock-transfected (control) CHO cells” value was “do not hydrolyze”. In [6], the “Spontaneous hydrolysis of substrate by CHO non-transfected cells” value is “about 3%” and the “hydrolysis by control CHO cell” value was “did not hydrolyze”. The “hydrolysis by the four PON1 mutants” value in test [6] (355/460) is on record as “very high efficiency”. Further, the Km in test [7] was 666 µM. At OPH, the Km was determined as 29 µM, the “catalytic rate (kcat) of OPH mediated hydrolysis” value was determined as 25 s⁻¹ and the “sensitivity for OPH detection relative to paraoxon” value is reported as “around 100 times”.

As to “6,8-difluoro-4-methylumbelliferyl phosphate”, in test [5], the “hydrolysis by PON1 transfected CHO cells” value is on record as “do hydrolyze significant amount” and the “hydrolysis by mock-transfected (control) CHO cells” value is on record as “do hydrolyze significant amount”.
